The list shows a part of the results, in another mix than the full data. Results filed as inconclusive are left out. Activity calls are given as the source filed them. The call rests on the fitted dose curve; in most records, active means well fitted activation curve with a large enough effect; inconclusive means small, poorly fitted or top-dose-only effect; inactive means no such curve, though single readings can be large or run the other way.

A short description of the assay: qHTS assay for re-activators of p53 using a Luc reporter. Further: % of control where 0% means no effect; nearly all actives have a fitted effect of over 45% in size. Conditions: H1299 p53-A138V BP100-luciferase reporter, luminescence, 24 h; at 92.2 µM (top of the series). The text has this: The p53 tumor suppressor plays a key role in suppression of tumorigenesis and in human carcinogenesis. It is frequently found inactivated in human cancers, mainly by point mutation. These point mutations are found in a wide variety of human cancers and a majority of them affect the DNA binding domain of the protein. The point mutations either alter native p53 conformation or abolish DNA contact. Additionally, cancer cells with p53 mutations are more resistant to chemo-radiation therapies. In order to find activators to reactivate this important protein, a cell-based screen for p53-dependent luciferase-reporter expression was developed. A p53-null H1299 lung cancer cell line was stably co-transfected with a temperature sensitive p53 mutant, p53-A138V, and a p53-responsive BP100-luciferase reporter. This cell model has previously been characterized in a gene chip profiling experiment for p53 activation. By lowering the culture temperature from 37 deg C (mutant p53 conformation) to 32 deg C (w.t. p53 conformation), a 30-60 fold increase in activation of luciferase activity is observed. At assay temperate, 37 deg C, basal reporter expression is very low and after the addition of detection reagent, a luminescent read-out is carried out. NIH Chemical Genomics Center [NCGC] NIH Molecular Libraries Probe Production Centers Network [MLPCN] MLPCN Grant: DA031088-01A1 Assay Provider (PI): Yi Sung, University of Michigan at Ann Arbor
5ul of 1000 cells per well are dispensed in all wells except column 4, into white solid-bottom TC-treated Kalypsys plates. The cells are kept in Opti-MEM and supplemented with 10% FBS and dispensed using a Multidrop (Thermo). Then using the Kalypsys pin-tool, 23nl of compounds are pinned. The compounds are starting concentration at 10mM, with 1:5 dilution, 4 points, and the control compound nocodazole is pinned in column 1 at 25mM, 1:3 dilution, in duplicate, 25mM nocodazole is pinned in column 2. Please note, all concentrations are working concentrations. 5ul of 1pM purified luciferase enzyme is dispensed using the Kalypsys dispenser in column 4. Plates are incubated for 24 hrs at 37 deg C, 5% CO2, and 95% humidity. Then 4ul of the detection reagent Amplite (ABD Bioquest) is added using the Kalypsys dispenser. Plates are incubated for 10 min at ambient room temperature and are then read on the ViewLux (Perkin Elmer) using a clear filter for a luminescent read-out.
(In qHTS, concentration-response curves come from the screen itself.)
Take `COC(=O)c1cc2c(s1)N=C(c1ccccc1)N(C)P2(=O)N1CCOCC1` (stereo not drawn): the activity change, positive = activation is inactive: -0.0879%. The result for `Cc1ccc(OP(=O)(Nc2ccccn2)Oc2ccc(C)cc2)cc1` reads inactive: -2.78%; that for `CC(=O)NC(SC(=S)N(CC(C)C)CC(C)C)C(Cl)(Cl)Cl` (stereo not drawn), inactive: 1.87%. The result for `O=C(OC1CN2CCC1CC2)c1ccccc1` (stereo not drawn) reads inactive: -4.51%; that for `CCC(=O)N1C2C3N(C(=O)CC)C1C1N(C(=O)CC)C(C(N1C(=O)CC)N3C(=O)CC)N2C(=O)CC`, inactive: 2.17%; that for `CC(NC(=O)COC(=O)C(O)(c1ccccc1)c1ccccc1)c1ccccc1` (stereo not drawn), inactive: -3.31%. Regarding `Cc1ccccc1OP(=O)(Nc1ccccn1)Oc1ccccc1C`, the activity change, positive = activation is inactive: -3.79%.

Regarding `O=c1c2cc([N+](=O)[O-])ccc2[nH]c2c([N+](=O)[O-])cc([N+](=O)[O-])cc12`, the activity change, positive = activation is inactive: 7.67%. Regarding `CN(C)C(=O)Oc1noc2ccccc12`, the activity change, positive = activation is inactive: 2.73%. Consider `CCNC(=S)/N=C(\N)N[N+](=O)[O-]`, for which the activity change, positive = activation is inactive: 9.74%. In the case of `O=C(NC1CCS(=O)(=O)C1)NP(=S)(Oc1ccccc1)Oc1ccccc1` (stereo not drawn), the activity change, positive = activation was inactive: -2.42%.

Consider `c1ccc(-c2nn[nH]n2)c(-c2nn[nH]n2)c1`, for which the activity change, positive = activation is inactive: -2.35%. Then `CCOC(=O)NC(Sc1ccccc1)C(Cl)(Cl)Cl` (stereo not drawn), with inactive: 4.05%. Take `Cc1ccc(NP(=O)(Oc2cccc(C)c2)Oc2cccc(C)c2)nc1`: the activity change, positive = activation was inactive: 0.668%. Then `CC(=O)c1ccc(N2CC2c2ccncc2)cc1` (stereo not drawn), with inactive: 3.2%; and `Cc1ccccc1CN(C)C(=O)COC(=O)C(O)(c1ccccc1)c1ccccc1`, with inactive: -3.64%; and `C[C@H]1OP(=O)(Oc2ccccc2)C[C@@H]2O[C@@H]21` (stereo partly drawn), with inactive: 0.28%. The result for `C[C@@H]1C=CCP(=O)(Oc2ccccc2)O1` (stereo partly drawn) reads inactive: 3.3%; that for `CC(=O)Nc1ccc([As](=O)(O)O)c(O)c1`, inactive: -1.51%.

`CC(=O)Nc1ccc(Oc2c([N+](=O)[O-])cc([N+](=O)[O-])cc2[N+](=O)[O-])cc1`: the activity change, positive = activation was inactive: -4.25%. Regarding `O=P1(Nc2nc3ccc(Cl)cc3s2)COc2ccccc2O1` (stereo not drawn), the activity change, positive = activation is inactive: 3.43%. The result for `CCOc1ccc(C2=NCC(CBr)S2)cc1` (stereo not drawn) reads inactive: 4.79%.

In the case of `CC(C)(C)C(=O)NC(Sc1ccccc1)C(Cl)(Cl)Cl` (stereo not drawn), the activity change, positive = activation is inactive: -3.26%. The result for `CC(C)C(=O)NC(Sc1ccccc1)C(Cl)(Cl)Cl` (stereo not drawn) reads inactive: -4.91%; that for `O=P(Nc1nccs1)(c1ccccc1)c1ccccc1`, inactive: 0.097%.

As for `c1nnnn1CCn1cnnn1`, the activity change, positive = activation was inactive: -6.63%. As to `O=[N+]([O-])c1ccc(O)c(/C=N/Nc2ccc([N+](=O)[O-])cc2[N+](=O)[O-])c1`, the activity change, positive = activation was inactive: 1.36%.

`O=[N+]([O-])c1ncn(CCn2cnc([N+](=O)[O-])n2)n1`: the activity change, positive = activation was inactive: 2.83%. The result for `CC(=O)NC(SC(=S)N(C)C)C(Cl)(Cl)Cl` (stereo not drawn) reads inactive: 17.9%; that for `O=[As](O)(c1ccccc1)c1ccc(O)cc1`, inactive: 2.66%; that for `C(Cc1nn[nH]n1)Cc1nn[nH]n1`, inactive: 23.5%. Then `Nc1ccc([As](=O)(O)c2ccc([N+](=O)[O-])cc2)cc1`, with inactive: 0.137%.

As to `O=C(OC1CN2CCC1CC2)c1cccc(Cl)c1` (stereo not drawn), the activity change, positive = activation is inactive: -0.871%.

`O=P(Nc1ccccn1)(c1ccc(Br)cc1)c1ccc(Br)cc1`: the activity change, positive = activation is inactive: -2.8%. The result for `CN(C)C1(CNC(=O)c2ccc(Cl)c(S(N)(=O)=O)c2)CCCCC1` reads inactive: 4.08%. Consider `O=P(Nc1nc2ccccc2s1)(c1ccccc1)c1ccccc1`, for which the activity change, positive = activation is inactive: 0.338%. The result for `C[C@H]1OP(=O)(Oc2ccccc2)[C@H](O)[C@H](O)[C@H]1N=[N+]=[N-]` (stereo partly drawn) reads inactive: -0.296%; that for `CC(C)(C)C(=O)NC(Sc1ccncn1)C(Cl)(Cl)Cl` (stereo not drawn), inactive: -1.38%; that for `O=[N+]([O-])c1ncn(CCn2ncnc2[N+](=O)[O-])n1`, inactive: -7.63%. The result for `O=[N+]([O-])c1cccc(NC2=NCC(CBr)S2)c1` (stereo not drawn) reads inactive: 2.62%. Then `O=C(O)CNc1ccc([As](=O)(O)O)cc1`, with inactive: -4.92%. As to `O=C(Nc1cc([As](=O)(O)O)ccc1O)c1ccccc1`, the activity change, positive = activation was inactive: -4.36%.

With `Nc1ccc([As](=O)(O)c2ccc(N)cc2)cc1`, the activity change, positive = activation was inactive: 3.14%. Then `C[N+]1=C2C=CC=CC=C2SC12C([N+](=O)[O-])=CC([N+](=O)[O-])=C[C-]2[N+](=O)[O-]` (stereo not drawn), with inactive: -16%. The result for `CCN(/C(=N/P(=O)(N1CCOCC1)N1CCOCC1)N1CCOCC1)c1ccc(OC)cc1` reads inactive: 2.31%.

As for `CC(C)=N/N=C(\N)N[N+](=O)[O-]`, the activity change, positive = activation was inactive: -4.52%. Then `CN(C)C(=O)OCCc1n(C)cc[n+]1C`, with inactive: -1.86%; and `CC1CCN(C(=O)Oc2c(Cl)cc(Cl)c3cccnc23)CC1`, with inactive: -4.29%. Then `COc1ccc(C2=NCC(CBr)S2)cc1` (stereo not drawn), with inactive: 11.5%; and `O=[N+]([O-])c1cccc2n[nH]nc12`, with inactive: 4.93%. The result for `CC(=O)N1C2C3N(C(C)=O)C1C1N(C(C)=O)C(C(N1C(C)=O)N3C(C)=O)N2C(C)=O` reads inactive: -4.54%; that for `Cc1ccc(NP(=O)(Oc2ccccc2)Oc2ccccc2)nc1`, inactive: -3.8%. `CCc1nc2c(n1)c1c(non1O)c1c2no[n+]1[O-]`: the activity change, positive = activation was inactive: -29.3%.

With `O=[N+]([O-])c1cc([N+](=O)[O-])c(CCNc2ccccc2)c([N+](=O)[O-])c1`, the activity change, positive = activation was inactive: 7.48%.

With `Nc1cc(N)c2nonc2c1[N+](=O)[O-]`, the activity change, positive = activation was inactive: -3.89%. Regarding `CC(C)CC(=O)NC(Sc1ccc(Cl)cc1)C(Cl)(Cl)Cl` (stereo not drawn), the activity change, positive = activation is inactive: -0.889%. The result for `Oc1ccccc1CNc1ccccn1` reads inactive: 2.69%; that for `O=C(NC(Sc1ccncn1)C(Cl)(Cl)Cl)c1ccccc1` (stereo not drawn), inactive: -0.0764%. Then `Cc1c2non([O-])c-2c(C)[n+](=O)[n+]1[O-]`, with inactive: -19.9%; and `NC(=O)c1cc([N+](=O)[O-])cc([N+](=O)[O-])c1N`, with inactive: 3.23%; and `Cc1ccc(N/C(=N/P(=O)(N2CCOCC2)N2CCOCC2)N2CCOCC2)cc1`, with inactive: -10.8%. The result for `COc1ccccc1OP(=O)(Nc1ccc(C)cn1)Oc1ccccc1OC` reads inactive: 1.78%; that for `Cc1ccc(OP(=O)(Nc2nccs2)Oc2ccc(C)cc2)cc1`, inactive: -0.75%.

These data come from PubChem BioAssay AID504706 (National Center for Advancing Translational Sciences (NCATS), 2011).
